Assay results from patent publication US12507703B2, “Methods, devices and compositions for preserving human milk” (The Trustees of Princeton University, priority 2023, dated 2025).

Tested on: lipase
Assay: Lipase/lipolysis assay (EnzChek Lipase Substrate, quenched BODIPY-fatty acid conjugate) on stored human milk
[1] = compound added to fresh human milk, stored 1 week at −20° C., thawed at room temperature, RFU <400 considered a hit
[2] = Biolog PM1 compound added to fresh human milk, stored 1 week at −20° C., RFU <400 = hit
[3] = Biolog PM5 compound added to fresh human milk, stored 1 week at −20° C., RFU <400 = hit
[4] = Biolog PM2a compound added to fresh human milk, stored 1 week at −20° C., RFU <400 = hit
[5] = Food-Sourced Compound Library compound added to fresh human milk, stored 1 week at −20° C., thawed at room temperature, RFU <400 considered a hit
[6] = Biolog PM4 compound added to fresh human milk, stored 1 week at −20° C., RFU <400 = hit
[7] = Food Additive Library compound added to fresh human milk, stored 1 week at −20° C., thawed at room temperature, RFU of <400 considered a hit

Compound | Lipase (RFU) [1] [RFU] | Lipase (RFU) [7] [RFU] | also measured
O=c1[nH]cc(CO)c(=O)[nH]1 [Compound 5-Hydroxymethyluracil, 5-Hydroxymethyluracil] | 848.2073 | – | –
O=C(O)[C@@H]1CCCN1O [Hydroxy-L-Proline] | – | – | Lipase (RFU) [4]: 1019.101 RFU
C[C@]12CC[C@@H]3c4ccc(O)cc4CC[C@H]3[C@@H]1CC[C@H]2O [Alpha-Estradiol] | 903.9156 | – | –
O=c1c(O)c(-c2ccc(O)c(O)c2)oc2cc(O)ccc12 [Fisetin] | 1046.219 | – | –
COc1c(OC)c2occc2c2oc(=O)ccc12 [Pimpinellin] | – | – | Lipase (RFU) [5]: 815.023 RFU
Cc1cn([C@H]2C[C@H](O)[C@@H](COP(=O)(O)O)O2)c(=O)[nH]c1=O [Thymidine-5′-monophosphate] | – | – | Lipase (RFU) [6]: 974.1167 RFU
O=C1CCCCN1 [Compound 2-Piperidone, 2-Piperidone] | 734.5448 | – | –
CCCCCCCCCCCCCCCCO [Compound 1-Hexadecanol, 1-Hexadecanol] | – | 1083.165 | –
N[C@@H](CC(=O)O)C(=O)O [L-Aspartic Acid] | – | 484.6137 | Lipase (RFU) [2]: 875.054 RFU; Lipase (RFU) [3]: 1061.921 RFU; Lipase (RFU) (Food-Sourced Compound Library compound added to fresh human milk, stored 1 week at −20° C., thawed at room temperature, RFU <400 considered a hit, listed as L-Aspartic acid): 1047.068 RFU
O=c1cc(-c2ccc(O)c(O)c2)oc2cc(O)cc(O)c12 [Luteolin] | – | – | Lipase (RFU) (Table 7, single compound 20 mg/mL, human milk stored 1 week at −20° C., inhibited if RFU <400): 292.778 RFU
O=C1O[C@H](CO)[C@@H](O)[C@H](O)[C@H]1O [D-(+)-Glucono-1,5-lactone] | – | 1105.401 | Lipase (RFU) [5]: 890.9945 RFU
C[C@H]1O[C@@H](n2cnc3c(N)ncnc32)[C@H](O)[C@@H]1O [5′-Deoxyadenosine] | – | – | Lipase (RFU) [5]: 899.0073 RFU
C[C@@H]1CC[C@@]2(NC1)O[C@H]1C[C@H]3[C@@H]4CC=C5C[C@@H](O[C@@H]6O[C@H](CO)[C@@H](O[C@@H]7O[C@@H](C)[C@H](O)[C@@H](O)[C@H]7O)[C@H](O)[C@H]6O[C@@H]6O[C@@H](C)[C@H](O)[C@@H](O)[C@H]6O)CC[C@]5(C)[C@H]4CC[C@]3(C)[C@H]1[C@@H]2C [Solamargine] | 912.2193 | – | –
CCCCS(=O)(=O)O [Butane Sulfonic Acid] | – | – | Lipase (RFU) [6]: 1201.684 RFU
CC(=O)[C@H]1CC[C@H]2[C@@H]3CC=C4C[C@@H](OS(=O)(=O)[O-])CC[C@]4(C)[C@H]3CC[C@]12C.[Na+] [Pregnenolone monosulfate (sodium)] | 649.264 | – | –
CC(C)[C@@H](C)/C=C/[C@@H](C)[C@H]1CC[C@H]2C3=CC=C4C[C@@H](O)CC[C@]4(C)[C@H]3CC[C@]12C [Ergosterol] | 678.6297 | – | –
COc1c2ccoc2cc2oc(=O)ccc12 [Bergapten] | – | – | Lipase (RFU) [5]: 815.5338 RFU
COc1ccc2[nH]cc(CC(=O)O)c2c1 [5-Methoxyindole-3-acetic acid] | 1104.988 | – | –
O=C[C@@H](O)[C@H](O)[C@@H](O)[C@@H](O)CO [L-Glucose] | – | – | Lipase (RFU) [4]: 694.8503 RFU
O=C(O)CCCC[C@@H]1SC[C@@H]2NC(=O)N[C@@H]21 [Biotin] | 1070.542 | 1165.648 | –
NC(N)=NCCS(=O)(=O)O [Guanidinoethyl sulfonate] | 955.0282 | – | –
CC1CCC(C(C)C)C(O)C1 (single isomer, unassigned; (-)) [(−)-Menthol] | 1023.319 | – | –
O=C(O)CC(O)C(=O)O (stereo not shown) [Malic acid] | – | 1029.253 | –

Compound | Lipase (RFU) [1] [RFU] | Lipase (RFU) [7] [RFU] | also measured
Cc1occc1SSc1ccoc1C [Bis(2-methyl-3-furyl)disulfide] | – | 1036.712 | –
Cn1cnc2c(ncn2[C@@H]2O[C@H](CO)[C@@H](O)[C@H]2O)c1=O [Compound 1-Methylinosine, 1-Methylinosine] | 1112.685 | – | –
OCC1=C[C@@H](O)[C@@H]2C=CO[C@@H](O[C@@H]3O[C@H](CO)[C@@H](O)[C@H](O)[C@H]3O)[C@H]12 [Aucubin] | 736.093 | – | –
CCOC(=O)OC(=O)OCC [Diethyl pyrocarbonate] | – | 886.6617 | –
CSCCC(N)C(=O)O (racemic) [DL-Methionine] | 657.4944 | 957.9009 | –
N=C(N)NC(CC(=O)O)C(=O)O (stereo not shown) [Guanidinosuccinic acid] | 698.8303 | – | –
C=CC1=C(C)c2cc3[n-]c(cc4[n-]c(cc5nc(cc1n2)C(C)=C5C=C)c(C)c4CCC(=O)O)c(CCC(=O)O)c3C.O.[Fe+2] [Hematin] | – | – | Lipase (RFU) [3]: 854.3329 RFU
O=C(O)c1cccnc1C(=O)O [Quinolinic Acid] | – | – | Lipase (RFU) [3]: 1209.412 RFU
COc1cc(C(C)C)ccc1C [Carvacrol methyl ether] | 880.5361 | – | –
O=C(O)/C=C/C(=O)O [Fumaric Acid] | 918.3772 | 762.3929 | Lipase (RFU) [2]: 1056.645 RFU
CC(CCC(=O)NCC(=O)O)C1CCC2C3C(O)CC4CC(O)CCC4(C)C3CCC12C (stereo not shown) [Glycochenodeoxycholic acid] | 983.0896 | – | –
N[C@H]1C(O)O[C@H](COP(=O)(O)O)[C@@H](O)[C@@H]1O (stereo partly drawn) [D-Glucosamine-6-Phosphate] | – | – | Lipase (RFU) [6]: 757.8961 RFU
O=C(CO)CO [1,3-Dihydroxyacetone] | – | 952.8488 | –
C=C(C)[C@@H]1CC[C@]2(CO)CC[C@]3(C)[C@H](CC[C@@H]4[C@@]5(C)CC[C@H](O)C(C)(C)[C@@H]5CC[C@]43C)[C@@H]12 [Betulin] | 1030.78 | – | –
OC[C@@H](O)[C@@H](O)[C@H](O)[C@@H](O)CO [D-Sorbitol] | 713.6691 | 781.4379 | Lipase (RFU) [2]: 892.2918 RFU
N[C@@H](CCC(=O)N[C@@H](CS)C(=O)NCC(=O)O)C(=O)O [Glutathione] | – | – | Lipase (RFU) [6]: 715.7865 RFU; Lipase (RFU) [3]: 1028.094 RFU
CC1=CC=C(C(C)C)CC1 [α-Terpinene] | – | 1101.898 | –
CC(=O)NC(CCC(N)=O)C(=O)O (stereo not shown) [Aceglutamide] | – | – | Lipase (RFU) [5]: 1263.47 RFU
CCCCCCCCCC(=O)O [Decanoic acid] | – | 948.693 | –
Cc1cn([C@H]2C[C@H](O)[C@@H](CO)O2)c(=O)nc1N [5-Methyl-2′-deoxycytidine] | – | – | Lipase (RFU) [5]: 961.9903 RFU
Ginkgolide J | – | – | Lipase (RFU) [5]: 851.9184 RFU
Cc1cncc(C)n1 [2,6-Dimethylpyrazine] | – | 824.3061 | –

Second part, led by results:

Lipase (RFU) [1] [RFU] | Lipase (RFU) [7] [RFU] | Compound | also measured
1246.653 | – | CC(=O)N[C@H]1C(O)O[C@H](CO)[C@@H](O)[C@@H]1O (stereo partly drawn) [N-Acetyl-D-Glucosamine] | Lipase (RFU) [2]: 1097.413 RFU; Lipase (RFU) [3]: 1058.802 RFU
1064.048 | – | CSCC[C@H](N)C(=O)O [Methionine] | –
– | 920.8484 | CCCCCCCC=O [Octanal] | –
1187.518 | – | COc1ccc(-c2coc3cc(O[C@@H]4O[C@H](CO)[C@@H](O)[C@H](O)[C@H]4O)ccc3c2=O)cc1 [Ononin] | –
– | 946.4563 | CCCCCCCCCCC(=O)O [Undecanoic acid] | Lipase (RFU) [5]: 879.0934 RFU
– | 688.775 | C[C@@H]1O[C@@H](O[C@H]2[C@H](Oc3cc(O)c(C(=O)CCc4ccc(O)cc4)c(O)c3)O[C@H](CO)[C@@H](O)[C@@H]2O)[C@H](O)[C@H](O)[C@H]1O [Naringin Dihydrochalcone] | –
1050.76 | – | C[C@@H]1O[C@@H](O[C@H]2[C@H](Oc3cc(O)c4c(c3)O[C@H](c3ccc(O)cc3)CC4=O)O[C@H](CO)[C@@H](O)[C@@H]2O)[C@H](O)[C@H](O)[C@H]1O [Naringin] | –
1056.902 | – | COC(=O)[C@@H](Cc1ccc(O)c(O)c1)OC(=O)/C=C/c1ccc(O)c(O)c1 [Methyl rosmarinate] | –
1040.161 | – | CC(=O)NCCc1c[nH]c2ccc(O)cc12 [N-Acetyl-5-hydroxytryptamine] | –
1174.468 | – | O=C(O)CP(=O)(O)O [Phosphonoacetic acid] | –
917.3568 | – | O=C(O)/C=C/CCCCCCCCC(=O)O [Traumatic Acid] | –
827.8345 | – | CC(=O)S[C@@H]1CC2=CC(=O)CC[C@]2(C)[C@H]2CC[C@@]3(C)[C@@H](CC[C@@]34CCC(=O)O4)[C@H]12 [Spironolactone] | –
988.7628 | – | O=C(O)/C=C\C=C/C(=O)O [cis,cis-Muconic acid] | –
916.1332 | 1041.908 | CCCCCC1C(=O)CCC1CC(=O)OC (stereo not shown) [Methyl dihydrojasmonate] | –
893.7445 | 879.1514 | CC(Cc1ccc(O)c(O)c1)C(C)Cc1ccc(O)c(O)c1 (stereo not shown) [Nordihydroguaiaretic acid] | –
906.3655 | – | O=C1NS(=O)(=O)c2ccccc21 [Saccharin (sodium hydrate)] | –
675.5882 | – | COc1cc(O)c2c(c1)O[C@H](c1ccc(O)cc1)CC2=O [Sakuranetin] | –
684.1202 | – | C[C@@H]1O[C@@H](c2c(O)c([C@@H]3O[C@H](CO)[C@@H](O)[C@H](O)[C@H]3O)c(O)c3c(=O)cc(-c4ccc(O)cc4)oc23)[C@H](O)[C@H](O)[C@H]1O [Violanthin] | –
1000.218 | – | C[C@H](CCC(=O)NCCS(=O)(=O)O)[C@H]1CC[C@H]2[C@@H]3CC[C@@H]4C[C@H](O)CC[C@]4(C)[C@H]3C[C@H](O)[C@]12C [Taurodeoxycholic acid (sodium hydrate)] | –
904.1508 | – | O=C(O)CCCCCCC(=O)O [Suberic acid] | –
1099.786 | 814.6528 | N[C@@H](CO)C(=O)O [L-Serine] | Lipase (RFU) [2]: 1052.209 RFU; Lipase (RFU) [3]: 724.1414 RFU
